Laboratory results from patent US9907800B2, “Kinase inhibitors and method of treating cancer” (University Health Network, priority 2010, dated 2018).
pIC50: −log10 of the molar value.

Sequences of proteins named here, by UniProt entry; tags and fusion partners are left off.
UniProt Q96GD4, whole entry: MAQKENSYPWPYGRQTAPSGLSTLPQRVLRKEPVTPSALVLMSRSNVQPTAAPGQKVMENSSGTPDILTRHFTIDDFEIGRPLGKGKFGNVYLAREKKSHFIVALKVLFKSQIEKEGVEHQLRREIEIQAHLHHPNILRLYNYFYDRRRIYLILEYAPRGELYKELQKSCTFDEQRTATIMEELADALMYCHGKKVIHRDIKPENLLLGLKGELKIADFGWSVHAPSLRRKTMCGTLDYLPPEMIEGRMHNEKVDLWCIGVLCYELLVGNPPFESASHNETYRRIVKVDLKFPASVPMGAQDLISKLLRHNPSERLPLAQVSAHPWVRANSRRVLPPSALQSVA

Biological target: Aurora B (Homo sapiens (Human), UniProt Q96GD4)
Test: Aurora B inhibition assay (Z-Lyte)
Type: biochemical
Conditions: read-out: Aurora B IC50 Ranges

## COc1ccc2c(c1)[C@]1(C[C@H]1c1ccc3c(-c4ccc(N5CCN(C(C)C)CC5)cc4)n[nH]c3c1)C(=O)N2 [Example A97, (1R,2S)-2-(3-(4-(4-isopropylpiperazin-1-yl)phenyl)-1H-indazol-6-yl)-5′-methoxyspiro[cyclopropane-1,3′-indolin]-2′-one 2,2,2-trifluoroacetate]
  pIC50: > 7.00
